# From patent US7169759B1, “Tetrapeptide inhibitors of β-secretase” (Elan Pharmaceuticals, Inc., priority 1999, dated 2007)
# By UniProt entry, the sequences of proteins in these tests, tags left out. Residues count along the entry.
# UniProt P56817, 46-501 limits assumed: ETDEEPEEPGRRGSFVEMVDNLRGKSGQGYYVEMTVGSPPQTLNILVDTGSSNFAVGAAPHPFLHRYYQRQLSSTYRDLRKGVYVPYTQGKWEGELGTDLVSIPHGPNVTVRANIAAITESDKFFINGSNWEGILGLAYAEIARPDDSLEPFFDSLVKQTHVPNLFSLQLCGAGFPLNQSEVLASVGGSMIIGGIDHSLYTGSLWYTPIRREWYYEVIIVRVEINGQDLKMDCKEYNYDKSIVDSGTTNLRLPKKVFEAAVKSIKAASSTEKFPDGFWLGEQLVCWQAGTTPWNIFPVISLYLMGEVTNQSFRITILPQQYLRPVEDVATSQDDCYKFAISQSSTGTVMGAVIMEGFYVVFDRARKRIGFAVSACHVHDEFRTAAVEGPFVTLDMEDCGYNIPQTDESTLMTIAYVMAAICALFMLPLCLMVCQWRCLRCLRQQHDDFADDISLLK
# Biological target: Human brain β-Secretase (Homo sapiens, UniProt P56817)
# Experiment: MBP-C125 enzyme inhibition assay (ELISA detection of β-secretase cleavage of MBP-C125 substrate)
# Settings: read-out: IC50 Group, pH 4.5, 37° C., 90 minutes, highest concentration 200 μM
# Method: Enzyme Inhibition Assay Purpose/Rationale:
# The MBP-C125 assay, determines relative inhibition of β-secretase cleavage of an MPB-C125 substrate by the compounds assayed. Human brain β-Secretase from the concentrated HiQ pool prepared Jul. 16, 1997 in 0.20% Triton is used in the assay. Inhibition data was obtained from an ELISA which uses an anti-MBP capture antibody (on precoated and blocked 96-well high binding plates) followed by incubation with diluted enzyme reaction supernatant, incubation with an anti-SW192 specific biotinylated reporter antibody and incubation with streptavidin/alkaline phosphatase. Detection was effected by a fluorescent substrate signal on cleavage by the phosphatase. The ELISA only detected cleavage following Leu 596 at the substrate's Swedish APP 751 mutation site.
# Compounds were diluted in a 1:1 dilution series to a six-point concentration curve (two wells per concentration) which took up one 96-plate row per compound tested.
# Each of the test compounds was weighed out into a vial and DMSO was added to make up a 10 mM solution. To obtain a final compound concentration of 200 μM at the high point of a 6-point dilution curve, 100 μL of the 10 mM solution was added to well C1 of a 96-well V-bottom plate. Fifty μL of DMSO was added to odd wells of row C across the plate and 1:1 serial dilutions were made. 10 μL of each dilution was added to each of two wells on row C of a corresponding V-bottom plate to which 190 μL of 52 mM NaOAc/7.9% DMSO, pH 4.5 were pre-added. The NaOAc diluted compound plate was spun down to pellet precipitant and 20 μL/well was transferred to a corresponding flat-bottom plate to which 30 μL of ice-cold enzyme-substrate mixture (2.5 μL MBP-C125 substrate, 0.03 μL enzyme and 24.5 ice cold 0.09% TX100 per 30 μl) was added. The compound concentration in the final enzyme reaction was thus 50 times less than the starting concentration. The final reaction mixture of 200 μM compound for the highest curve point was in 5% DMSO, 20 mM NaAc, 0.06% TX100, at pH 4.5. The enzyme reaction was started by warming the plates to 37° C. After 90 minutes at 37° C., 200 μL/well cold specimen diluent was added to stop the reaction and 20 μL/well was transferred to a corresponding α-MBP coated ELISA plate, containing 80 μL/well specimen diluent. This reaction was incubated overnight at 4° C. and the ELISA was developed the next day using a 2 hr. incubation with α-192SW followed by Streptavidin-AP conjugate and flourescent substrate. The signal was read on a fluorescent plate reader.
row,IC50 [µM],Compound
1,10 to 99,CSCC[C@H](NC(=O)[C@@H](NC(=O)OC(C)(C)C)C(C)C)C(=O)NC(CC(C)C)C(O)CC(=O)NC(C(=O)NC1(C(=O)O)CC1)C(C)C (some centres unmarked)
2,< 10,CSCC[C@H](NC(=O)[C@@H](NC(=O)OC(C)(C)C)C(C)C)C(=O)NC(CC(C)C)C(O)CC(=O)NC(C(=O)NC1CCC(CC(=O)O)CC1)C(C)C (some centres unmarked)
3,10 to 99,CSCC[C@H](NC(=O)[C@@H](NC(=O)OC(C)(C)C)C(C)C)C(=O)NC(CC(C)C)C(O)CC(=O)NC(C(=O)NCCCC(=O)O)C(C)C (some centres unmarked)
4,10 to 99,CSCC[C@H](NC(=O)[C@@H](NC(=O)OC(C)(C)C)C(C)C)C(=O)NC(CC(C)C)C(O)CC(=O)NC(C(=O)NCc1ccc(C(N)=O)cc1)C(C)C (some centres unmarked)
5,< 10,CSCC[C@H](NC(=O)[C@@H](NC(=O)OC(C)(C)C)C(C)C)C(=O)NC(CC(C)C)C(O)CC(=O)NC(C(=O)NC(CCC(=O)O)C(=O)O)C(C)C (some centres unmarked)
6,100 to 200,COC(=O)CCNC(=O)C(NC(=O)CC(O)C(CC(C)C)NC(=O)[C@H](CCSC)NC(=O)[C@@H](NC(=O)OC(C)(C)C)C(C)C)C(C)C (some centres unmarked)
7,< 10,CSCC[C@H](NC(=O)[C@@H](NC(=O)OC(C)(C)C)C(C)C)C(=O)NC(CC(C)C)C(O)CC(=O)NC(C(=O)NC1CCC(C(=O)O)CC1)C(C)C (some centres unmarked)
8,< 10,CSCCC(NC(=O)C(NC(=O)OC(C)(C)C)C(C)C)C(=O)NC(CC(C)C)C(O)CC(=O)NC(C(=O)NCc1ccc(C(=O)O)cc1)C(C)C (centres unmarked)
9,< 10,CSCC[C@H](NC(=O)[C@@H](NC(=O)OC(C)(C)C)C(C)C)C(=O)NC(CC(C)C)C(O)CC(=O)NC(C(=O)NC1CC(C(=O)O)CC(C(=O)O)C1)C(C)C (some centres unmarked)
10,> 200,CSCC[C@H](NC(=O)[C@@H](NC(=O)OC(C)(C)C)C(C)C)C(=O)NC(CC(C)C)C(O)CC(=O)NC(C(=O)NC(CCC(N)=O)C(N)=O)C(C)C (some centres unmarked)
11,> 200,CCCCCNC(=O)C(NC(=O)CC(O)C(CC(C)C)NC(=O)[C@H](CCSC)NC(=O)[C@@H](NC(=O)OC(C)(C)C)C(C)C)C(C)C (some centres unmarked)
12,10 to 99,CSCCC(NC(=O)C(NC(=O)OC(C)(C)C)C(C)C)C(=O)NC(CC(C)C)C(O)CC(=O)NC(C(=O)NC1CCOC1=O)C(C)C (centres unmarked)
13,10 to 99,CSCC[C@H](NC(=O)[C@@H](NC(=O)OC(C)(C)C)C(C)C)C(=O)NC(CC(C)C)C(O)CC(=O)NC(C(=O)NC1CC(C(=O)O)CCC1C(=O)O)C(C)C (some centres unmarked)
14,10 to 99,CSCC[C@H](NC(=O)[C@@H](NC(=O)OC(C)(C)C)C(C)C)C(=O)NC(CC(C)C)C(O)CC(=O)NC(C(=O)NCc1ncc(C(=O)O)s1)C(C)C (some centres unmarked)
15,10 to 99,CSCCC(NC(=O)C(NC(=O)OC(C)(C)C)C(C)C)C(=O)NC(CC(C)C)C(O)CC(=O)NC(C(=O)N(C)Cc1ccc(C(=O)O)cc1)C(C)C (centres unmarked)
16,> 200,CSCC[C@H](NC(=O)[C@@H](NC(=O)OC(C)(C)C)C(C)C)C(=O)NC(CC(C)C)C(O)CC(=O)NC(C(=O)NCc1ccccc1)C(C)C (some centres unmarked)
17,100 to 200,CCOC(=O)N1CCN(C(=O)C(NC(=O)CC(O)C(CC(C)C)NC(=O)C(CCSC)NC(=O)C(NC(=O)OC(C)(C)C)C(C)C)C(C)C)CC1 (centres unmarked)

# The next lines start with the compound.
row,Compound,IC50 [µM]
1,CSCC[C@H](NC(=O)[C@@H](NC(=O)OC(C)(C)C)C(C)C)C(=O)NC(CC(C)C)C(O)CC(=O)NC(C(=O)NCCC(=O)O)C(C)C (some centres unmarked),10 to 99
2,CSCC[C@H](NC(=O)[C@@H](NC(=O)OC(C)(C)C)C(C)C)C(=O)NC(CC(C)C)C(O)CC(=O)NC(C(=O)Nc1cccc(C(=O)O)c1)C(C)C (some centres unmarked),10 to 99
3,CSCC[C@H](NC(=O)[C@@H](NC(=O)OC(C)(C)C)C(C)C)C(=O)NC(CC(C)C)C(O)CC(=O)NC(C(=O)NCCCCO)C(C)C (some centres unmarked),100 to 200
4,CCNC(=O)C(NC(=O)CC(O)C(CC(C)C)NC(=O)[C@H](CCSC)NC(=O)[C@@H](NC(=O)OC(C)(C)C)C(C)C)C(C)C (some centres unmarked),100 to 200
5,CSCC[C@H](NC(=O)[C@@H](NC(=O)OC(C)(C)C)C(C)C)C(=O)NC(CC(C)C)C(O)CC(=O)NC(C(=O)Nc1ccc(F)cc1)C(C)C (some centres unmarked),100 to 200
6,CSCC[C@H](NC(=O)[C@@H](NC(=O)OC(C)(C)C)C(C)C)C(=O)NC(CC(C)C)C(O)CC(=O)NC(C(=O)NCCNC(C)=O)C(C)C (some centres unmarked),100 to 200
7,CSCC[C@H](NC(=O)[C@@H](NC(=O)OC(C)(C)C)C(C)C)C(=O)NC(CC(C)C)C(O)CC(=O)NC(C(=O)O)C(C)C (some centres unmarked),100 to 200
8,CSCCC(NC(=O)C(NC(=O)OC(C)(C)C)C(C)C)C(=O)NC(CC(C)C)C(O)CC(=O)NC(C(=O)NCc1ccncc1)C(C)C (centres unmarked),100 to 200
9,COC(=O)C(NC(=O)CC(O)C(CC(C)C)NC(=O)[C@H](CCSC)NC(=O)[C@@H](NC(=O)OC(C)(C)C)C(C)C)C(C)C (some centres unmarked),> 200
10,COC(=O)CCCNC(=O)C(NC(=O)CC(O)C(CC(C)C)NC(=O)[C@H](CCSC)NC(=O)[C@@H](NC(=O)OC(C)(C)C)C(C)C)C(C)C (some centres unmarked),10 to 99
11,CSCC[C@H](NC(=O)[C@@H](NC(=O)OC(C)(C)C)C(C)C)C(=O)NC(CC(C)C)C(O)CC(=O)NC(C(=O)NCc1cccc(C(=O)O)c1)C(C)C (some centres unmarked),< 10
12,CSCCC(NC(=O)C(NC(=O)OC(C)(C)C)C(C)C)C(=O)NC(CC(C)C)C(O)CC(=O)NC(C(=O)N1CCC(CC(=O)O)CC1)C(C)C (centres unmarked),10 to 99
